Test system: Mus musculus
Test: Antialzheimer activity in transgenic mouse harboring K670M/N671L, PS1M146V and tauP301L mutants assessed as reduction in hippocampal Abeta(1-40) levels at 0.12 umol/kg, ip for 21 days by ELISA
Set-up: scale not given: the % may be the effect or the level left
Details: Hippocampus

CCC1=C[C@@H]2Cc3nc4cc(Cl)ccc4c(N)c3[C@H](C1)C2.Cl
Activity: 40%
